# Reference: ChEMBL document CHEMBL1135324, “Quaternary salts of E2020 analogues as acetylcholinesterase inhibitors for the reversal of neuromuscular block” (Bioorg Med Chem Lett, 2002)
# By UniProt entry, the sequences of proteins in these tests, tags left out. Where a name states a change or a piece, a line headed by the entry shows the natural chain unless it says otherwise.
# UniProt P22303: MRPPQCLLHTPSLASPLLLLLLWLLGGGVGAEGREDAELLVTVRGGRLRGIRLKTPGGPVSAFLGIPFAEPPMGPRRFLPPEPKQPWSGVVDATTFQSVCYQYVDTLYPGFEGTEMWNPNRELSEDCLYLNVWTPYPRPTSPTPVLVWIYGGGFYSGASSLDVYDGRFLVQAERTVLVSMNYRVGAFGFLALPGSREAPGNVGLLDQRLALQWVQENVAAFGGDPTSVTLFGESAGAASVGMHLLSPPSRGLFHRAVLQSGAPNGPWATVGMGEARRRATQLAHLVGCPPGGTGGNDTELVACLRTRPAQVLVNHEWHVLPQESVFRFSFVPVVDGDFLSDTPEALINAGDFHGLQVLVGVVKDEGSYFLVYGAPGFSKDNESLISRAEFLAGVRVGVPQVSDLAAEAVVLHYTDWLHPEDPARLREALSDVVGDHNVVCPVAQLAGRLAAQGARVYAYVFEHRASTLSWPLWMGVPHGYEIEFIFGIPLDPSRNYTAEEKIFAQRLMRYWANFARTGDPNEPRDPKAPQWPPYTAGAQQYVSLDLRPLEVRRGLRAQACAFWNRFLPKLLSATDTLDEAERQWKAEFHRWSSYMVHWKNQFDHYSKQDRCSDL
# Key:
# Acetylcholinesterase [1] = biological target: T1, Acetylcholinesterase (Homo sapiens, UniProt P22303)
# Acetylcholinesterase [2] = biological target: T1, Acetylcholinesterase; experiment: In vitro inhibition of human recombinant AChE.
structure (smiles),measurement,setting,value
O=C(CCC1CCN(Cc2ccccc2)CC1)c1ccc2c(c1)NCCCC2 [ZANAPEZIL],EC50,Acetylcholinesterase [1],1140 nM
same,IC50,Acetylcholinesterase [2],< 500 nM
